What was measured:
Type in all cases: cell-based
CPS1 = experiment: RNA-seq of compound-treated primary human hepatocytes, CPS1 expression
ARG1 = experiment: RNA-seq of compound-treated primary human hepatocytes, ARG1 expression; settings: RNA-seq (Table 7)
SLC25A15 = experiment: RNA-seq of compound-treated primary human hepatocytes, SLC25A15 expression; settings: RNA-seq (Table 8)
urea cycle genes = experiment: RNA-seq of primary human hepatocytes, compounds that modulate multiple urea cycle-related genes

GZD824 Dimesylate
CPS1 expression, Fold change (Log 2) vs untreated (CPS1): 3.39 Log 2 | Fold change (Log 2) vs untreated, ARG1 expression (ARG1): 1.06 Log 2 | Fold change (Log 2) vs untreated, SLC25A15 expression (SLC25A15): 0.73 Log 2 | number of urea cycle genes whose expression was significantly up-regulated (urea cycle genes): three | Up-regulated Genes (urea cycle genes; urea cycle-related genes significantly increased (Table 10)): CPS1, ARG1, SLC25A15

From patent US11266655B2, “Methods and compositions for treating urea cycle disorders” (Camp4 Therapeutics Corporation, priority 2019, dated 2022)
